Sequences of proteins named here, by UniProt entry; tags and fusion partners are left off. Residues count along the entry.
UniProt P09382, 2-135 limits assumed: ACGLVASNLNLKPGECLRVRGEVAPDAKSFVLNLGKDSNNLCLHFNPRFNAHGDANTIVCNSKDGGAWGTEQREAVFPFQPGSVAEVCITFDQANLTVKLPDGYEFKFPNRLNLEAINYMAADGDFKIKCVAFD

According to patent US20240124427A1, “HYDROXYHETEROCYCLOALKANE-CARBAMOYL DERIVATIVES” (Idorsia Pharmaceuticals Ltd, priority 2021, published 2024):

Target: human Gal-1 (hGal-1) (Homo sapiens, UniProt P09382)
Conditions: read-out: Gal-1 IC50; Activity on hGal-1; mean values of several measurements; mixture of diastereomers measured where not separated

Structure (SMILES) | IC50
CO[C@@H]1[C@@H](n2cc(-c3cc(F)c(F)c(F)c3)nn2)[C@@H](O)[C@@H](CO)O[C@H]1C(=O)N(c1cc(C)cc(Br)c1)[C@H]1CCNC[C@@H]1O | 76 nM
CO[C@@H]1[C@@H](n2cc(-c3cc(F)c(F)c(F)c3)nn2)[C@@H](O)[C@@H](CO)O[C@H]1C(=O)N(c1cc(Br)cc(C#N)c1)[C@H]1CCNC[C@@H]1O | 51 nM
CO[C@@H]1[C@@H](n2cc(-c3cc(F)c(F)c(F)c3)nn2)[C@@H](O)[C@@H](CO)O[C@H]1C(=O)N(c1cc(Cl)cc(Cl)c1)[C@H]1CCNC[C@@H]1O | 49 nM
CO[C@@H]1[C@@H](n2cc(-c3cc(F)c(F)c(F)c3)nn2)[C@@H](O)[C@@H](CO)O[C@H]1C(=O)N(c1cc(C)cc(Br)c1)[C@@H]1CCNC[C@H]1O | 1170 nM
